# Apparent affinities of Ab-14 variants for a coronavirus HR2 peptide

From the AlphaSeq antibody data of Li et al. 2023 (doi:10.1038/s41467-023-39022-2), copy in the FLAb collection.

All variants were tested on one target, the spike HR2 peptide PDVDLGDISGINAS (SARS-CoV-2).

Parent: Ab-14, a human scFv built as VH, a (GGGGS)3 linker, VL. Only the CDRs of the light chain vary.
VH: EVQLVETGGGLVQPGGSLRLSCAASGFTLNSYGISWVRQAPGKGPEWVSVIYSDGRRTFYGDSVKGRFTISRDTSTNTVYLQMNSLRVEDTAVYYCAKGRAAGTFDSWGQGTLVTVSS
VL: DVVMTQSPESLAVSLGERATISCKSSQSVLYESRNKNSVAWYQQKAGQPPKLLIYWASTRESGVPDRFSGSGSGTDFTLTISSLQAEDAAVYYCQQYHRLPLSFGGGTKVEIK

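Designed CDR sequences, proposed from the first random library and measured here. Several design methods are mixed in this list. Affinity was read by AlphaSeq, a pooled yeast mating assay with surface-displayed partners. Pairs that bind mate more often; barcode pairs of the diploids are counted by sequencing. Each replicate has its own calibration line, from reference interactions of the BCL2 family. There are six technical replicates.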

Variants are written as CDR1, CDR2 and CDR3 of the light chain (limits as in the source). Parent: KSSQSVLYESRNKNSVA, WASTRES, QQYHRLPLS. This list holds designs with more than six substitutions. Values are apparent Kd, the geometric mean of the replicates that gave a signal; lower means stronger binding. Nonspecific signal, from three strains lacking the peptide, appeared in 4% of pairings of all light chain designs, centred on 430 nM (5% of these signals below 38 nM); values are not corrected for it.

The variant KLDPSDLGESRNKNSVA | QASQREI | QQYHQLPLS showed 1.6 nM (6 of 6 replicates).
The variant HISYSMAHLSKNKNSVA | NQQTREE | QQYHRLPLS showed 3.3 nM (6 of 6 replicates).
The variant KIAATSLYEQGAANSVA | QNSTRES | QQYHRLPLS showed 6.0 nM (6 of 6 replicates).
The variant KVSQSTLYESLMKNSVA | NASVRSS | QQYHRLPLS showed 950 pM (6 of 6 replicates).
The variant RLLYLDLHQTGKLNSVA | DATITQQ | QQYHQLPLM showed 13 nM (6 of 6 replicates).
The variant QLPNYRGDGYLQKNNVA | EGTERSH | QQYMRLPLF showed 1.4 nM (6 of 6 replicates).
The variant KLSVMTSYLSVNKNSVA | EMSTRES | QQYDRLPLS showed 7.0 nM (6 of 6 replicates).
The variant KLSESVRMESFNKNSVA | ENSTREA | QDYHRLPLS showed 350 nM (2 of 6 replicates).
The variant KLMQFMNRGTHHTSNIA | DAVNRID | QQYYRLPLA showed 6.2 nM (6 of 6 replicates).
The variant MISQLMNMGQFAINSVA | QASYRNE | QQYDRLPLM showed 9.5 nM (3 of 6 replicates).
The variant TLSDLMYMESRNVNSVA | DLVKRED | QQYHRLPLS showed 1.5 nM (6 of 6 replicates).
The variant KVQNGLERGNQGYSAVA | DVTEKGA | QQYLQLPLM showed 20 nM (6 of 6 replicates).
The variant SLEAFEYQIMKDLNNIA | NTQTRVN | QQYMRLPFM showed 1.1 nM (6 of 6 replicates).
The variant MFALYQDSMGDAKKSIA | DRNTKAH | QQYSKLPLV showed 4.5 nM (6 of 6 replicates).
The variant HINDMLFGSTKIAHSIA | NTGVTSR | QQYSRLPLI showed 13 nM (6 of 6 replicates).
The variant MFSQLTYTGSRTRNAVA | QASTREN | QQYHRLPLS showed 5.9 nM (6 of 6 replicates).
The variant ILSQSVLMGMHLKNSVA | QASTRFQ | QQYHRLPLM showed 1.3 nM (6 of 6 replicates).
The variant KLSQWQWYEDRNKNSVA | SASTRCH | QQYHRLPLS showed 2.3 nM (6 of 6 replicates).
The variant KLIQSVAMSSRMKDSIA | DNSTRES | QQYHRLPLS showed 610 nM (6 of 6 replicates).
The variant KITQLVMETSKNKNNVA | EVSTLPD | QQYHRLPLS showed 870 pM (6 of 6 replicates).
The variant KLDGSDQYESRNKNSVA | EASTRES | QAYHRLPLS showed 1.5 nM (6 of 6 replicates).
The variant MMSLCQNGYYQQNNSIA | DRNERAM | QQYGRLPLV showed 130 nM (4 of 6 replicates).
The variant MMSQVTGQGQRHRNNVA | QTETREP | QQYDRLPLI showed 3.2 nM (6 of 6 replicates).
The variant NMTLQVRNGENNKYNIA | AEMKRVY | QQYQRLPLM showed 20 nM (6 of 6 replicates).
The variant IVSQLMLWGYHAKNSIA | EAQTRLN | QQYERLPLF showed 50 nM (2 of 6 replicates).
The variant SLTNETDGNYGRNNSVA | NAEELMT | QAYFRLPIT showed 32 nM (4 of 6 replicates).
The variant KSSISVDYEDRNQNSVA | SASQREH | QQYHRLPLS showed 93 nM (6 of 6 replicates).
The variant MISQLMNMGQFAINSVA | QANIRNS | QQYDRLPLI showed 18 nM (6 of 6 replicates).
The variant KISGSHLYESRNWNAVA | EASTRPS | QQYHRLPLS showed 1.1 nM (6 of 6 replicates).
The variant KVSIEVWMGDRNKNSVA | DASTRES | QQYHRLPLS showed 1.3 nM (6 of 6 replicates).
The variant KLSPSELYESRQSNSVA | NASLRES | QQYHRLPLS showed 1.2 nM (6 of 6 replicates).
The variant FLTYASDQTGLQGNAIA | QVNLKEN | QQYMRLPLA showed 150 nM (5 of 6 replicates).
The variant KMSQTMLYESANMNSVA | AASTPES | QQYHRLPLS showed 910 pM (6 of 6 replicates).
The variant TISQSFLMENQFKNSVA | QASTRLS | QCYDRLPLS showed 3.8 nM (6 of 6 replicates).
The variant KIGMTLNQLYEKANNVA | DLVMREN | QQYHRLPLS showed 4.7 nM (6 of 6 replicates).
The variant KLYASTMLESHNKNSIA | DLSTRGN | QQYHRLPLS showed 3.1 nM (6 of 6 replicates).
The variant KLTHPTDSWLNHVNSIA | DANISVE | QQYMQLPLT showed 3.8 nM (6 of 6 replicates).
The variant MISQLFMYGSRNYNSVA | QASKRES | QQYDRLPLI showed 33 nM (4 of 6 replicates).
The variant ALGDVTRMESNKKNSIA | DMSTRAS | QQYHRLPLS showed 680 pM (6 of 6 replicates).
The variant KVTFYMQDSNAMDNSIA | QTNIYHE | QQYGRLPLV showed 21 nM (6 of 6 replicates).

The 3 strongest on average among those seen in every replicate, once more:

CDR-L1,CDR-L2,CDR-L3,Kd,seen in
ALGDVTRMESNKKNSIA,DMSTRAS,QQYHRLPLS,680 pM,6 of 6
KITQLVMETSKNKNNVA,EVSTLPD,QQYHRLPLS,870 pM,6 of 6
KMSQTMLYESANMNSVA,AASTPES,QQYHRLPLS,910 pM,6 of 6

Of ten entries with the parent sequence, four were seen in most replicates (averages 2.2 nM to 240 nM), three in one and three in none, so single entries are noisy. A sequence measured in both rounds can read differently, since the two assays cover different ranges. In the paper, a design with two or fewer of six values counts as a poor binder.